3 molecules from ChEMBL document CHEMBL1131506, “Development of a binding model to protein tyrosine kinases for substituted pyrido[2,3-d]pyrimidine inhibitors” (J Med Chem, 1998) can be followed below.

By UniProt entry, the sequences of proteins in these tests, tags left out. Where a name states a change or a piece, a line headed by the entry shows the natural chain unless it says otherwise.
UniProt P05622: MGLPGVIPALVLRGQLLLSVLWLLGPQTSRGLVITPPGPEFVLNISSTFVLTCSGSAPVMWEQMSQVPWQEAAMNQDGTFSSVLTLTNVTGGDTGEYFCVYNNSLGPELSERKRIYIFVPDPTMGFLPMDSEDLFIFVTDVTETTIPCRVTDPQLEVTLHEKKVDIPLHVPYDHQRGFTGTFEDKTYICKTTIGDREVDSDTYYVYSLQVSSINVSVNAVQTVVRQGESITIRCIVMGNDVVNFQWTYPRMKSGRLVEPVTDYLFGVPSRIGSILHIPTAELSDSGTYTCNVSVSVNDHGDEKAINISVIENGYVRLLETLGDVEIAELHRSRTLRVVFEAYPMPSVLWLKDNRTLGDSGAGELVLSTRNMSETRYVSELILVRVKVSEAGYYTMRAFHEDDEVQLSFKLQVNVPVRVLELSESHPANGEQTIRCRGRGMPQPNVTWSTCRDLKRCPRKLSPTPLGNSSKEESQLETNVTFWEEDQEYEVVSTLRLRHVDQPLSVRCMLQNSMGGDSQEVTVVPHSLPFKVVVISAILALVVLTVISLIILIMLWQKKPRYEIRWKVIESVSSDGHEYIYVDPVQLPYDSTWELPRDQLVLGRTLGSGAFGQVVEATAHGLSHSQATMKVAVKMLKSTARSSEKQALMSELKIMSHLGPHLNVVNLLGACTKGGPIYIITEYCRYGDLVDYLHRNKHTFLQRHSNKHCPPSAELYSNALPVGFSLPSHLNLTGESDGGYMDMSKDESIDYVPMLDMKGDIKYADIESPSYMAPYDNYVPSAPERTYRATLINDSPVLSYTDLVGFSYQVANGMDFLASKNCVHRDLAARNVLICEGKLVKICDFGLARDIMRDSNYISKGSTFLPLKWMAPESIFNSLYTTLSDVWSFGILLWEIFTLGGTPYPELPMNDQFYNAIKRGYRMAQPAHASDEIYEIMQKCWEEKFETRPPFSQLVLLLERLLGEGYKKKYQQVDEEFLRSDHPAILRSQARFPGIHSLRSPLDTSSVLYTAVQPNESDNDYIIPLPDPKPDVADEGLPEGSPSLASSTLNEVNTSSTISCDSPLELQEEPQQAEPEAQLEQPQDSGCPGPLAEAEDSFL
UniProt P26618: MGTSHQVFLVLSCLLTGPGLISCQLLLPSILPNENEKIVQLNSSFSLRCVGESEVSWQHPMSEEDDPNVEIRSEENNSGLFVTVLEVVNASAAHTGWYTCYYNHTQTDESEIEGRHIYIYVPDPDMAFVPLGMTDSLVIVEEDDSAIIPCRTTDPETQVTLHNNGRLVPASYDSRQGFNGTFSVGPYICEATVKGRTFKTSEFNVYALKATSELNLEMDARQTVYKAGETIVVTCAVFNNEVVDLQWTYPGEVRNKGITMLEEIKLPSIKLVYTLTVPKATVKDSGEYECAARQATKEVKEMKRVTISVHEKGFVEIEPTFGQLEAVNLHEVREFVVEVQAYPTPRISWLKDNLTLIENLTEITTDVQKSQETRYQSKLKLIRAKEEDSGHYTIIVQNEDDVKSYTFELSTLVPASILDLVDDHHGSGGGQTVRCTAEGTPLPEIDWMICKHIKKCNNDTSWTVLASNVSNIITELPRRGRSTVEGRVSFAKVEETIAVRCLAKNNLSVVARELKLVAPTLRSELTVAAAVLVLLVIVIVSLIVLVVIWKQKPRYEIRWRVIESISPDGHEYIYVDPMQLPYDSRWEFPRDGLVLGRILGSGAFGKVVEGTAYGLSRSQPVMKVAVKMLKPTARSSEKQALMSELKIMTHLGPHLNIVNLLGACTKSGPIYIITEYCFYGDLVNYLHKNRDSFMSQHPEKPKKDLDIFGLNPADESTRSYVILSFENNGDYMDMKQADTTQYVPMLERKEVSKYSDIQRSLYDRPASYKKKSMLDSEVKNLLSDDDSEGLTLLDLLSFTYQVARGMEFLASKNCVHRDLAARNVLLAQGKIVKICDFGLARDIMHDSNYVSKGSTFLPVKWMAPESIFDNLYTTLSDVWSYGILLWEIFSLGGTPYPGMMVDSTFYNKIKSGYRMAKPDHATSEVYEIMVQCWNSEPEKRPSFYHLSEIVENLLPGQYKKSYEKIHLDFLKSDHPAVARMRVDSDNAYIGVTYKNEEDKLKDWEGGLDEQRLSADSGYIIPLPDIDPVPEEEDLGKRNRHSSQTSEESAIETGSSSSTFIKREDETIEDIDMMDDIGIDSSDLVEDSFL
UniProt P22607: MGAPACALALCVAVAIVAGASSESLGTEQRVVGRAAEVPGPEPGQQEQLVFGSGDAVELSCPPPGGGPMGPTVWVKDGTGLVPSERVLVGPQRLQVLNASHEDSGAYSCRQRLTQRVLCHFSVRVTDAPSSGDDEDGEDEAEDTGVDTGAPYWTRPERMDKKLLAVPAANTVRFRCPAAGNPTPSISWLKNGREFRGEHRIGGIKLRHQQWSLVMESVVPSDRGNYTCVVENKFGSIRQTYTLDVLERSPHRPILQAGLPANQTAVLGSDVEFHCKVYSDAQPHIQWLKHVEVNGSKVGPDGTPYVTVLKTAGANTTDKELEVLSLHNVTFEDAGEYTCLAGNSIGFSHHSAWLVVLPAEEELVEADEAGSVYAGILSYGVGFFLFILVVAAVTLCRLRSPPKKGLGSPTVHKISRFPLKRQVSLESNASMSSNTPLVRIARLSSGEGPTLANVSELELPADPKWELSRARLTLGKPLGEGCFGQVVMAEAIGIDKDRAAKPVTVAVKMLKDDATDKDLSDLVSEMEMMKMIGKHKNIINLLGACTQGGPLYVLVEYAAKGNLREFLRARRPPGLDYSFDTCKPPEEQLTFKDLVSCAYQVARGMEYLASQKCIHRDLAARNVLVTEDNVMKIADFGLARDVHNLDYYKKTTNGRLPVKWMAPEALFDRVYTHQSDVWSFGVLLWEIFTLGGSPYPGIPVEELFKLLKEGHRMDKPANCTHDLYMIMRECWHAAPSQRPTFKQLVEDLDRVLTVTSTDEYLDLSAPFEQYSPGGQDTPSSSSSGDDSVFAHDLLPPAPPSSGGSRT
UniProt P11362: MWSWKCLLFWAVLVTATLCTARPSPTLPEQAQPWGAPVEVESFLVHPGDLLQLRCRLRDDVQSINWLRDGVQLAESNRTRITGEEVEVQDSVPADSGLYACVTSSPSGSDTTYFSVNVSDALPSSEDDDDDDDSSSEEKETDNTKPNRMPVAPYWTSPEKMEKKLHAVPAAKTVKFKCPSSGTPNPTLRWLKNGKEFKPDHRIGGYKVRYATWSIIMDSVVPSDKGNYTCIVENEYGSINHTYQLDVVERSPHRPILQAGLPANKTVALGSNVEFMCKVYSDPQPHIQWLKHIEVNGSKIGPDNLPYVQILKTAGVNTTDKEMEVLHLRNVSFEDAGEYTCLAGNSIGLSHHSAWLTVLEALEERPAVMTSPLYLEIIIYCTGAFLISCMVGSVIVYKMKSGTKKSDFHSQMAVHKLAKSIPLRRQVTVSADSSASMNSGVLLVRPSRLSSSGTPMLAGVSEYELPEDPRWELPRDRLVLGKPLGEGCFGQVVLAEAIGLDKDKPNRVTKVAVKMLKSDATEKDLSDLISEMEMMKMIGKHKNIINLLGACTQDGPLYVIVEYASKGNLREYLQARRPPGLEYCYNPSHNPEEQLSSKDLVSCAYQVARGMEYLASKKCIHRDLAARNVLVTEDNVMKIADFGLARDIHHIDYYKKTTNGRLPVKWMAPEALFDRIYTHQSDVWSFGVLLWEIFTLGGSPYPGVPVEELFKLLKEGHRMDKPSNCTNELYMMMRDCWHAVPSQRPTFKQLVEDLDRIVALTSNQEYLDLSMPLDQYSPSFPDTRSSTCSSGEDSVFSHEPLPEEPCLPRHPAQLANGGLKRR
UniProt P22455: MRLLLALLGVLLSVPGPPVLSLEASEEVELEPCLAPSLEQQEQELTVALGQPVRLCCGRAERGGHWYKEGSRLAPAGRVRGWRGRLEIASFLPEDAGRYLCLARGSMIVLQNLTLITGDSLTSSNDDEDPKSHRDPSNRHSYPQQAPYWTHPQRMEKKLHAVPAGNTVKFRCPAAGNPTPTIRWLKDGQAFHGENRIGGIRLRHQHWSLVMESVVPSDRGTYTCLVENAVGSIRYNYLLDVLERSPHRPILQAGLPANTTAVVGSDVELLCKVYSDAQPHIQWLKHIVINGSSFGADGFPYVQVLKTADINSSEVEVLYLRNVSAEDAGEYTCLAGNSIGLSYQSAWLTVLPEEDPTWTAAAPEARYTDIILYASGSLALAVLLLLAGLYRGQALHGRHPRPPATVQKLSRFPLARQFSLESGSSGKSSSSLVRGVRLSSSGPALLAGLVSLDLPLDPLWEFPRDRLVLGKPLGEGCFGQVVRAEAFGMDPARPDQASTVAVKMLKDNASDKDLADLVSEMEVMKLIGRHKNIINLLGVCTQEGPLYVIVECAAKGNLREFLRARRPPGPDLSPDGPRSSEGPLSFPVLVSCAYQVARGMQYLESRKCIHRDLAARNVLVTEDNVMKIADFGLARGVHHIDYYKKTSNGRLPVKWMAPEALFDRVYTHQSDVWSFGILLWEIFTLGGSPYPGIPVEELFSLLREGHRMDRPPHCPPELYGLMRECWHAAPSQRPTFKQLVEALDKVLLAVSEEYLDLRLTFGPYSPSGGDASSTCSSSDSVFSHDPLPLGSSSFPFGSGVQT
UniProt P21802: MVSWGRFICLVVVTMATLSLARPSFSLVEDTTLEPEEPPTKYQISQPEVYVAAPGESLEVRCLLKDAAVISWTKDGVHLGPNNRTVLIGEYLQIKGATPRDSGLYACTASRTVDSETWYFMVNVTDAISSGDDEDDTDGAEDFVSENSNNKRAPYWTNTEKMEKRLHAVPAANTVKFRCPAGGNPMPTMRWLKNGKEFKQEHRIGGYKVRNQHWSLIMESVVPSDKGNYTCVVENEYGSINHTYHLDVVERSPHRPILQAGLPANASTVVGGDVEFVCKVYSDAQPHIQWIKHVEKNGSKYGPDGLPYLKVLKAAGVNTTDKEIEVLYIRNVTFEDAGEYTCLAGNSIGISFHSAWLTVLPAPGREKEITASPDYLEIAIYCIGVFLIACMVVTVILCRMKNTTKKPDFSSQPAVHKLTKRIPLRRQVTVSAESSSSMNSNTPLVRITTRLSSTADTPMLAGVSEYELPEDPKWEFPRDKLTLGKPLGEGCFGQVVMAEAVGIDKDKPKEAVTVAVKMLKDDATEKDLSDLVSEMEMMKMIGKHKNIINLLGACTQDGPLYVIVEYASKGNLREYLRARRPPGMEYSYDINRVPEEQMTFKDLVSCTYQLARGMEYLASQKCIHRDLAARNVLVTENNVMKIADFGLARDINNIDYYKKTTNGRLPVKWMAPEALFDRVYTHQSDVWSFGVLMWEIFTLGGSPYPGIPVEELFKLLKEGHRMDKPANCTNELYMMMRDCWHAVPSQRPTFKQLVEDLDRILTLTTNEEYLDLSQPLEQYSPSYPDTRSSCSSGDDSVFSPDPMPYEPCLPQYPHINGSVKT

Each structure is given as a SMILES string. pIC50: −log10 of the molar value.

For assay [1], the target named is Platelet-derived growth factor receptor (Mus musculus, UniProt P05622+P26618). Nature of the assay: Inhibitory concentration of compound against mouse Platelet-derived growth factor receptor.
Assay [2] deals with Fibroblast growth factor receptor (Homo sapiens, UniProt P22607+P11362+P22455+P21802). Nature of the assay: Inhibitory concentration of compound against human fibroblast growth factor receptor. The class given is protein assay.

As to `CN1CCN(CCCNc2ncc3cc(-c4c(Cl)cccc4Cl)c(NC(=O)NCc4ccccc4)nc3n2)CC1`, in assay [1], the negative logarithm of the IC50 (pIC50) (commonly −log10 of the IC50, conventionally taken in molar units) is 5.70.

For `CN1CCN(CCCNc2ncc3cc(-c4c(Cl)cccc4Cl)c(NC(=O)NC4CCCCC4)nc3n2)CC1`, the pIC50 in assay [1] is 6.58.

In the case of `COc1ccc(NC(=O)Nc2nc3nc(NCCCN4CCN(C)CC4)ncc3cc2-c2c(Cl)cccc2Cl)cc1`, the IC50 – broadly, the concentration needed to halve the response being measured – in assay [2] stood at 0.139 µM. The pIC50 in assay [1] is 6.10.
